The list shows a part of the results, in another mix than the full data. Calls of active or inactive are those of the source. Cut-off read from the data, not from the text of the source: active = activation above about 7.8%; inactive = the rest.

The test is described as follows: SMARCA2 (BRM) function activators, primary screen, cell-based, luminescence, high throughput (AID 652017).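 Note: 0% = vehicle wells and 100% = reference activator wells.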 The settings on record: MG213 cells, MMTV-luciferase reporter, dexamethasone, overnight; at 9.1 µM; hits give high values.
For `O=C1CCN(Cc2ccccc2)CC1`, the activation was inactive: 0.79%.
As for `CC(C)(C)n1nnnc1C(c1ccccc1)N1CCC(n2c(=O)[nH]c3ccccc32)CC1` (stereo not given), the activation is inactive: -4.61%.
The same measure for `CCOc1ccc(C)cc1CN(CCCl)CCCl`: inactive: -0.11%.
With `COc1ccc(NC2CCN(CCc3ccccc3)CC2)c(OC)c1`, the activation was inactive: 0.73%.
The same measure for `CCOC(=O)N1CCC(Nc2ccc(F)cc2)CC1`: inactive: -3.46%; for `O=P1(N(CCCl)CCCl)SCCCS1`: inactive: -2.01%; for `CCCCn1nnnc1C(c1cc2ccccc2o1)N1CCC(n2c(=O)[nH]c3ccccc32)CC1` (stereo not given): inactive: -5.6%.
The same measure for `CCCCOc1ccc(C(=O)NCC2(N3CCOCC3)CCCCC2)cc1`: inactive: -3.17%; for `O=C(NCC1(N2CCCCC2)CCCCC1)c1ccc(F)cc1`: inactive: -1.4%.
For `O=c1[nH]c2ccccc2n1C1CCN(C(c2ccccc2)c2nnnn2C2CCCCC2)CC1` (stereo not given), the activation is inactive: -2.38%.
Then `CCOC(=O)N1CCC(Nc2cccc(C)c2)CC1`, with inactive: -1.45%; and `COc1cc(C(=O)NCC2(N(C)C)CCCCC2)ccc1OC(F)F`, with inactive: -2.04%; and `O=c1[nH]c2ccccc2n1C1CCN(C(c2cccc3ccccc23)c2nnnn2C2CCCC2)CC1` (stereo not given), with inactive: -4.41%.
Turning to `CC(C)(C)OC(=O)N1CCC(N(C(=O)c2ccccc2)c2ccc(F)cc2)CC1`, the activation was inactive: -2.5%.
Regarding `COc1ccc(C(=O)NCC2(N3CCCCC3)CCCCC2)c(OC)c1OC`, the activation is inactive: -3.28%.
Take `CCC(c1nnnn1C1CCCC1)N1CCC(n2c(=O)[nH]c3ccccc32)CC1` (stereo not given): the activation is inactive: -4.67%.
With `COc1ccc(C(=O)NCC2(N3CCCCC3)CCCCC2)cc1`, the activation is inactive: -0.44%.
Then `O=C(NCC1(N2CCCCC2)CCCCC1)c1cccs1`, with inactive: -0.96%; and `CCCCn1nnnc1C(CC)N1CCC(n2c(=O)[nH]c3ccccc32)CC1` (stereo not given), with inactive: -4.7%; and `CCCCn1nnnc1C(c1cccs1)N1CCC(n2c(=O)[nH]c3ccccc32)CC1` (stereo not given), with inactive: -3.29%.
Then `O=C(NCC1(N2CCCCC2)CCCCC1)c1ccc(=O)[nH]c1`, with inactive: -1.87%.
Turning to `Cc1cccc(NC2(C#N)CCN(Cc3ccccc3)CC2)c1`, the activation is inactive: -7.71%.
Then `CSc1ccccc1C(=O)NCC1(N2CCCCC2)CCCCC1`, with inactive: 4.13%; and `Cc1cc(C)cc(N(C(=O)c2ccccc2)C2CCN(C(=O)OC(C)(C)C)CC2)c1`, with inactive: 3.63%; and `O=C(NCC1(N2CCCCC2)CCCCC1)c1ccc(Cl)nc1`, with inactive: -2.39%.
Then `O=c1[nH]c2ccccc2n1C1CCN(C(c2ccccc2OC(F)(F)F)c2nnnn2C2CCCCC2)CC1` (stereo not given), with inactive: -0.15%; and `O=C(NCC1(N2CCOCC2)CCCCC1)c1cc2ccccc2o1`, with inactive: 0.25%.
The same measure for `COc1ccc(Cl)cc1C(=O)NCC1(N2CCOCC2)CCCCC1`: inactive: 4.59%.
Take `N#CC1(Nc2ccccc2)CCN(Cc2ccccc2)CC1`: the activation is inactive: -2.85%.
Then `O=C(NCC1(N2CCCCC2)CCCCC1)c1ccc(Cl)s1`, with inactive: -4.98%; and `O=C(OC1CN2CCC1CC2)C1c2ccccc2Oc2ccccc21` (stereo not given), with inactive: 1.08%.
Turning to `O=c1[nH]c2ccccc2n1C1CCN(C(c2cc3ccccc3o2)c2nnnn2C2CCCCC2)CC1` (stereo not given), the activation was inactive: -4.44%.
Then `CCCCn1nnnc1C(c1ccc(OC)cc1)N1CCC(n2c(=O)[nH]c3ccccc32)CC1` (stereo not given), with inactive: -2.97%; and `CCOC(=O)N1CCC(Nc2ccc(OC)cc2)CC1`, with inactive: -3.27%.
Turning to `CC(C)c1ccc(NC2CCN(C(=O)OC(C)(C)C)CC2)cc1`, the activation is inactive: -1.83%.
As for `CN(C)c1cccc(C(=O)NCC2(N3CCCCC3)CCCCC2)c1`, the activation was inactive: -1.85%.
For the compound `COc1ccc(CN(CCCl)CCCl)cc1Cl`, the activation is inactive: -2.79%.
As for `COC(=O)C1(Nc2ccccc2)CCN(Cc2ccccc2)CC1`, the activation is inactive: -2.17%.
For `CCC(c1nnnn1C(C)(C)C)N1CCC(n2c(=O)[nH]c3ccccc32)CC1` (stereo not given), the activation was inactive: -3.01%.
On to `O=C(NCC1(N2CCOCC2)CCCCC1)c1cc(F)c(F)cc1Cl`, for which the activation was inactive: -1.5%.
The same measure for `COc1cc(OC)c(C(=O)NCC2(N(C)C)CCCCC2)cc1OC`: inactive: -0.51%; for `CCCCn1nnnc1C(c1ccnc2ccccc12)N1CCC(n2c(=O)[nH]c3ccccc32)CC1` (stereo not given): inactive: -3.83%; for `CN1CCC(Nc2cccc(F)c2)CC1`: inactive: -2.25%.
Take `O=C(NCC1(N2CCCCC2)CCCCC1)c1cncc(Br)c1`: the activation is inactive: 0.61%.
Then `COc1ccc(C(c2nnnn2C2CCCC2)N2CCC(n3c(=O)[nH]c4ccccc43)CC2)cc1` (stereo not given), with inactive: -0.04%; and `CCCOc1ccc(C(=O)NCC2(N(C)C)CCCCC2)cc1OC`, with inactive: -0.13%.
Turning to `Cc1ccc(C(=O)NCC2(N(C)C)CCCCC2)o1`, the activation was inactive: 1.23%.
Turning to `O=C(NCC1(N2CCCCC2)CCCCC1)c1ccc(OC(F)F)cc1`, the activation was inactive: -1.13%.
The same measure for `CC(C)(C)n1nnnc1C(c1ccccc1OC(F)(F)F)N1CCC(n2c(=O)[nH]c3ccccc32)CC1` (stereo not given): inactive: -6.47%; for `O=c1[nH]c2ccccc2n1C1CCN(C(c2ccccc2OC(F)(F)F)c2nnnn2C2CCCC2)CC1` (stereo not given): inactive: -4.56%.
The same measure for `N#CC1(Nc2ccccc2)CCN(CCc2ccccc2)CC1`: inactive: -0.71%; for `CCN1CCC(Nc2ccc(Cl)cc2)CC1`: inactive: -0.19%; for `CSc1ccc(C(=O)NCC2(N3CCOCC3)CCCCC2)cc1`: inactive: -2.01%.
As for `O=C(NCC1(N2CCCCC2)CCCCC1)c1cccc([N+](=O)[O-])c1`, the activation was inactive: -1.43%.
As for `O=C(NCC1(N2CCCCC2)CCCCC1)c1cccc(C(F)(F)F)c1`, the activation is inactive: 2.4%.
For the compound `COc1cc(C(=O)NCC2(N3CCCCC3)CCCCC2)ccc1OC(F)F`, the activation was inactive: -1.52%.
On to `O=C(NCC1(N2CCOCC2)CCCCC1)c1cc(=O)[nH]c2ccccc12`, for which the activation is inactive: 0.32%.
Take `CN1CCN(CCOC(=O)C(O)(c2ccccc2)c2ccccc2)CC1`: the activation is inactive: 0.09%.
Then `CC(C)c1ccc(C(=O)NCC2(N3CCOCC3)CCCCC2)cc1`, with inactive: -0.98%; and `COc1ccc(NC2CCN(C(=O)OC(C)(C)C)CC2)cc1`, with inactive: -3.01%; and `CCCCn1nnnc1C(c1cccc2ccccc12)N1CCC(n2c(=O)[nH]c3ccccc32)CC1` (stereo not given), with inactive: -0.86%.
Take `N#Cc1ccc(C(=O)NCC2(N3CCCCC3)CCCCC2)cc1`: the activation is inactive: -1.96%.
Then `CC(C)(C)OC(=O)N1CCC(N(C(=O)c2ccccc2)c2ccc(Cl)cc2)CC1`, with inactive: 5.33%; and `CN(C)C1(CNC(=O)c2cccc(C#N)c2)CCCCC1`, with inactive: -2.01%; and `Cc1cc(N(CCCl)CCCl)ccc1C=O`, with inactive: 0.62%.
Then `O=c1[nH]c2ccccc2n1C1CCN(C(c2ccccc2)c2nnnn2C2CCCC2)CC1` (stereo not given), with inactive: -3.76%; and `CCCN1CCC(Nc2cc(OC)cc(OC)c2)CC1`, with inactive: -1.45%; and `C/C(N)=N\P(=O)(Oc1ccccc1)Oc1ccccc1`, with inactive: 4.57%.
On to `c1ccc(CN2CCC(Nc3ccccc3)CC2)cc1`, for which the activation is inactive: -3.72%.
Take `CC(C)(C)n1nnnc1C(c1cccc2ccccc12)N1CCC(n2c(=O)[nH]c3ccccc32)CC1` (stereo not given): the activation is inactive: -7.44%.
Then `COc1cc(C(=O)NCC2(N3CCOCC3)CCCCC2)cc(OC)c1C`, with inactive: -3.2%; and `CCCCn1nnnc1C(c1ccccc1)N1CCC(n2c(=O)[nH]c3ccccc32)CC1` (stereo not given), with inactive: 0.38%; and `O=C(NCC1(N2CCOCC2)CCCCC1)c1cc(Br)ccc1Cl`, with inactive: -1.95%.
The same measure for `NC(=O)C1(Nc2ccccc2)CCN(Cc2ccccc2)CC1`: inactive: 3.5%; for `O=c1[nH]c2ccccc2n1C1CCN(C(c2cccs2)c2nnnn2C2CCCCC2)CC1` (stereo not given): inactive: -4.56%; for `O=c1[nH]c2ccccc2n1C1CCN(C(c2ccnc3ccccc23)c2nnnn2C2CCCC2)CC1` (stereo not given): inactive: 0.12%.
Regarding `COc1ccc(C(=O)NCC2(N3CCOCC3)CCCCC2)cc1OC`, the activation was inactive: 2.66%.
Turning to `CCOC(=O)N1CCC(Nc2ccc(C)cc2)CC1`, the activation was inactive: -0.38%.
The same measure for `COc1cccc(C(c2nnnn2C(C)(C)C)N2CCC(n3c(=O)[nH]c4ccccc43)CC2)c1OC` (stereo not given): inactive: 0.54%.
On to `N/C(=N\O)c1c(N)no[n+]1[O-]`, for which the activation was inactive: 1.43%.
The same measure for `O=c1[nH]c2ccccc2n1C1CCN(C(c2cccs2)c2nnnn2C2CCCC2)CC1` (stereo not given): inactive: -1.57%.
Then `O=C(OC1CN2CCC1CC2)C1c2ccccc2C=Cc2ccccc21` (stereo not given), with inactive: -2.42%.
On to `CCCCn1nnnc1C(c1cccc(OC)c1OC)N1CCC(n2c(=O)[nH]c3ccccc32)CC1` (stereo not given), for which the activation was inactive: -2.45%.
Turning to `CN1CCC(Nc2ccc(F)c(Cl)c2)CC1`, the activation was inactive: -0.52%.
The same measure for `CCOc1ncccc1C(=O)NCC1(N2CCOCC2)CCCCC1`: inactive: -2.86%.
For the compound `O=C(O)C1(Nc2ccccc2)CCN(Cc2ccccc2)CC1`, the activation was inactive: -0.82%.
For `NN(c1ccccc1)C1CCN(CCc2ccccc2)CC1`, the activation was inactive: 2.35%.
On to `CC(C)(C)OC(=O)N1CCC(Nc2ccccc2)CC1`, for which the activation is inactive: -4.48%.
The same measure for `O=c1[nH]c2ccccc2n1C1CCN(C(c2cc3ccccc3o2)c2nnnn2C2CCCC2)CC1` (stereo not given): inactive: -6.26%.
The same measure for `CCCOc1ccc(C(=O)NCC2(N(C)C)CCCCC2)cc1`: inactive: -3.48%; for `COc1cccc(C(c2nnnn2C2CCCC2)N2CCC(n3c(=O)[nH]c4ccccc43)CC2)c1OC` (stereo not given): inactive: -4.58%.
Consider `COc1cc(OC)cc(C(=O)NCC2(N3CCOCC3)CCCCC2)c1`, for which the activation is inactive: 3.4%.
The same measure for `COc1cccc(C(=O)N(c2cc(C)cc(C)c2)C2CCN(C(=O)OC(C)(C)C)CC2)c1`: inactive: 2.41%.
Then `CCC(CO)(C(=O)OC1CN2CCC1CC2)c1ccccc1` (stereo not given), with inactive: 1.01%; and `CN1CCC(Nc2ccc(Cl)cc2)CC1`, with inactive: -2.57%.
On to `CCC(c1nnnn1C1CCCCC1)N1CCC(n2c(=O)[nH]c3ccccc32)CC1` (stereo not given), for which the activation was inactive: -3.08%.
The same measure for `COc1cccc(C(c2nnnn2C2CCCCC2)N2CCC(n3c(=O)[nH]c4ccccc43)CC2)c1OC` (stereo not given): inactive: -4.63%.
Consider `CC(=O)N(c1ccccc1)C1CCNCC1`, for which the activation is inactive: -2.55%.
With `COc1cc(OC)cc(C(=O)NCC2(N3CCCCC3)CCCCC2)c1`, the activation is inactive: -2.41%.
Then `O=c1[nH]c2ccccc2n1C1CCN(C(c2ccnc3ccccc23)c2nnnn2C2CCCCC2)CC1` (stereo not given), with inactive: -3.47%; and `Fc1ccccc1NC1CCN(Cc2ccccc2)CC1`, with inactive: 4.1%; and `Cc1ccc(C(=O)NCC2(N3CCCCC3)CCCCC2)o1`, with inactive: -3.12%.
In the case of `Cc1ccc(NC2(C#N)CCN(Cc3ccccc3)CC2)cc1`, the activation is inactive: 1.1%.
The same measure for `CCN1CCC(Nc2cccc(F)c2)CC1`: inactive: 3.21%.
Then `COc1ccc(C(c2nnnn2C2CCCCC2)N2CCC(n3c(=O)[nH]c4ccccc43)CC2)cc1` (stereo not given), with inactive: 0.95%; and `CC(C)(C)n1nnnc1C(c1ccnc2ccccc12)N1CCC(n2c(=O)[nH]c3ccccc32)CC1` (stereo not given), with inactive: -6.27%.
Then `Cc1ccccc1NC1(C#N)CCN(Cc2ccccc2)CC1`, with inactive: -1.2%; and `CN(C)c1ccc(C(=O)NCC2(N3CCCCC3)CCCCC2)cc1`, with inactive: -1.19%.
Consider `Cn1c(=O)[nH]cc(N(CCCl)CCCl)c1=O`, for which the activation was inactive: -3.82%.
The same measure for `O=C(NCC1(N2CCCCC2)CCCCC1)c1ccco1`: inactive: 3.18%.

The record behind these values is PubChem BioAssay AID652017 (The Scripps Research Institute Molecular Screening Center, 2013).
